# scFv variants of Ab-91 (heavy chain) against a SARS-CoV-2 spike peptide

From the AlphaSeq antibody data of Engelhart et al. 2022 (doi:10.1038/s41597-022-01779-4), copy in the FLAb collection.

Target: peptide PDVDLGDISGINAS, taken from heptad repeat 2 (HR2) of SARS-CoV-2 spike.

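Variants in AAYL51 differ from the parent at up to three CDR positions; double and triple changes were sampled at random. The scFvs were displayed on barcoded MATa yeast, the peptide on MATalpha yeast. Mating (16 h, 30 °C) was followed by selection of diploids and sequencing of their barcodes. A regression on co-assayed BCL2-family reference pairs converts the normalised counts of each replicate to an apparent Kd. Each pool was mated in three replicate cultures.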

The variants keep the light chain, the linker and the frameworks of Ab-91 (scFv order VL, the linker GGGGSGGGGSGGGGS, VH).
VL: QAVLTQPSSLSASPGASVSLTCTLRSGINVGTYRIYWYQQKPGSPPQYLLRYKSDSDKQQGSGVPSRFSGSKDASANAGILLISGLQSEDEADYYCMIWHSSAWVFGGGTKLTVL
VH: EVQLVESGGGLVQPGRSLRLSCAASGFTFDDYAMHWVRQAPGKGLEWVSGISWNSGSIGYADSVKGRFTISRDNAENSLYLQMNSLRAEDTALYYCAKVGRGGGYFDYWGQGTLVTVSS

The parent's heavy chain CDRs are GFTFDDYAMH, GISWNSGSIGYADSVK, VGRGGGYFDY; each variant's own CDRs replace them letter for letter.
This list gathers variants with a substitution at R101 (VH, numbered from residue 1).
Values are log10 of the apparent Kd in nM; lower means stronger binding.
A mean of the replicates is given; it leaves out those without a signal.
An entry "nd" has no value in the source: the pair was not observed among the diploids in any replicate. This suggests poor binding but is not conclusive.
Empty control strains, which show no peptide, gave a signal in 21% of pairings with library AAYL51; the median was 4.54 and 95% of these signals were weaker than 3.26. No background was subtracted. Also given: how often the same scFv was detected with the empty control strains.

For GFTFDDYAMH / GISWNEGSIGYADFVK / VGVGGGYFDY, the assay gave nd (0 of 3 replicates; controls 1 of 9).
For GFTFDPYAMH / GISWNSGSHGYADSVK / VGVGGGYFDY, the assay gave nd (0 of 3 replicates; controls 0 of 9).
For GFTFDDYAMH / GISWLSGSIGYSDSVK / VGNGGGYFDY, the assay gave nd (0 of 3 replicates; controls 0 of 9).
For GFTFDDYAMH / GIAWNSGSIGYADSVK / EGVGGGYFDY, the assay gave 2.03 (3 of 3 replicates; controls 0 of 9).
For GFTFDDYAMH / GISWNSGSIGYADSEK / VGYGGGYFDG, the assay gave nd (0 of 3 replicates; controls 1 of 9).
For GFTFDDYAMH / GISWASGSIGYADSVK / VGYGGGHFDY, the assay gave 4.32 (1 of 3 replicates; controls 4 of 9).
For GFTFDDYAMH / GQSWNSGSIGTADSVK / VGEGGGYFDY, the assay gave 5.02 (1 of 3 replicates; controls 6 of 9).
For GFTFDDYPMH / GISWNSGSIGYADSVK / VGQGGGYFDY, the assay gave nd (0 of 3 replicates; controls 0 of 9).
For GFTFFDYAMH / GISWNSGSIGYADSVK / VGTGGGYFDY, the assay gave 5.07 (2 of 3 replicates; controls 4 of 9).
For GFTSDDYAMH / GISWRSGSIGYADSVK / VGLGGGYFDY, the assay gave 3.33 (1 of 3 replicates; controls 0 of 9).
For GFTFDDYAMH / GISWNSGSIGYIDSVK / VGWGGSYFDY, the assay gave 4.09 (1 of 3 replicates; controls 0 of 9).
For GFIFDDYAMH / GISWNSGSIGYADSVK / VGAGGGYFDL, the assay gave 3.98 (3 of 3 replicates; controls 0 of 9).
For GFTFDDYAMH / GISWNSGSIGYADSVA / VGYGGGYFDY, the assay gave 1.95 (3 of 3 replicates; controls 4 of 9).
For GFTFDDYAMH / GISWNSGSIGYADSVK / WGYGGGYFDY, the assay gave 5.81 (1 of 3 replicates; controls 2 of 9).
For GFLFDDYAMH / GISWNSGSIGYADSVK / VGLGGAYFDY, the assay gave 4.75 (1 of 3 replicates; controls 0 of 9).
For GETVDDYAMH / GISWNSGSIGYADSVK / VGSGGGYFDY, the assay gave nd (0 of 3 replicates; controls 2 of 9).
For GFTFWDYAMM / GISWNSGSIGYADSVK / VGGGGGYFDY, the assay gave nd (0 of 3 replicates; controls 5 of 9).
For GFTFDDYAMH / GISWNSGSVLYADSVK / VGSGGGYFDY, the assay gave nd (0 of 3 replicates; controls 0 of 9).
For GFTFDDYAMD / GISWNSGSIGYADSVK / MGDGGGYFDY, the assay gave 4.98 (3 of 3 replicates; controls 5 of 9).
For GFTFDDCAMH / GISWNSGSIGYHDSVK / VGIGGGYFDY, the assay gave nd (0 of 3 replicates; controls 0 of 9).
For GFTFDDYQMH / GISWNSGSIGYAASVK / VGQGGGYFDY, the assay gave 4.41 (2 of 3 replicates; controls 4 of 9).
For GFTFDDYAMH / GISWNSGSIGYADSVK / GGCGGGYFDI, the assay gave nd (0 of 3 replicates; controls 0 of 9).
For GFTFDDYAYH / GISWNSGSIGYADSVK / VGMGGGGFDY, the assay gave nd (0 of 3 replicates; controls 1 of 9).
For GFTFDDYAMH / GISWNSGSIGYADTVK / VGYGGGYADY, the assay gave 4.41 (2 of 3 replicates; controls 1 of 9).
For GFTFADYAAH / GISWNSGSIGYADSVK / VGHGGGYFDY, the assay gave 3.00 (3 of 3 replicates; controls 3 of 9).
For VFTFDDYAMH / GISWNSGSIGYADSVH / VGGGGGYFDY, the assay gave nd (0 of 3 replicates; controls 0 of 9).
For GFTFDDYAMH / GISWNSGGIGYADSVK / VGPGGGYSDY, the assay gave nd (0 of 3 replicates; controls 1 of 9).
For GFTFDDYAMH / GISWNSGSIVYADSVK / VGDGGGSFDY, the assay gave nd (0 of 3 replicates; controls 4 of 9).
For GFTFDDYAMH / GISWNSGSIGYYDSVK / VGCGGGYFDY, the assay gave nd (0 of 3 replicates; controls 0 of 9).
For GFTFDDIAMH / GISWNSGSIGYADYVK / VGWGGGYFDY, the assay gave 4.88 (1 of 3 replicates; controls 3 of 9).
For GFTFDDYAMH / GISWNSGSIGYADSAK / VGDGGGFFDY, the assay gave nd (0 of 3 replicates; controls 0 of 9).
For GFTFDDYAMH / GISWNSGSIGYADSVK / VGDGGGYFTR, the assay gave 3.24 (3 of 3 replicates; controls 0 of 9).

Picked from the list: the 5 lowest averages where every replicate gave a value.

The variant GFTFDDYAMH / GISWNSGSIGYADSVA / VGYGGGYFDY gave 1.95 (3 of 3 replicates; controls 4 of 9).
The variant GFTFDDYAMH / GIAWNSGSIGYADSVK / EGVGGGYFDY gave 2.03 (3 of 3 replicates; controls 0 of 9).
The variant GFTFADYAAH / GISWNSGSIGYADSVK / VGHGGGYFDY gave 3.00 (3 of 3 replicates; controls 3 of 9).
The variant GFTFDDYAMH / GISWNSGSIGYADSVK / VGDGGGYFTR gave 3.24 (3 of 3 replicates; controls 0 of 9).
The variant GFIFDDYAMH / GISWNSGSIGYADSVK / VGAGGGYFDL gave 3.98 (3 of 3 replicates; controls 0 of 9).